{"source": "patent US11407741B2", "about": "“Compounds and their use as selective inhibitors of caspase-2” (priority 2017, dated 2022)", "molecular_target": "T1, Caspase-3 (Homo sapiens, UniProt P42574)", "T1 construct": "the Caspase-2 and Caspase-3 are human recombinant active enzymes; purchased R&D Systems 707-C3-010/CF", "T1 sequence (P42574 29-175 limits assumed)": "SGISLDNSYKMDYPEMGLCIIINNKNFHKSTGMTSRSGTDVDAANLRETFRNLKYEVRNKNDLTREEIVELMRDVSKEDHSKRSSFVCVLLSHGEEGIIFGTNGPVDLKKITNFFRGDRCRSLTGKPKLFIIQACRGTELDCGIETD", "T1 sequence (P42574 176-277 limits assumed)": "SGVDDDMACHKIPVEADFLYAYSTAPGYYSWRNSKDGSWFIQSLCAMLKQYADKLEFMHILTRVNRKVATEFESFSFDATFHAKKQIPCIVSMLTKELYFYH", "assay": "Caspase-3 inhibition assay for reversible inhibitors (IC50, Ki)", "type": "biochemical", "protocol": "A preliminary step in the characterization of an inhibitor is the determination of its IC50. The IC50 is the necessary concentration of an inhibitor to decrease the enzyme activity by 50% of its maximum and uninhibited value.\nThe compound, at different concentrations, is incubated with the enzyme and buffer for 30 minutes at 37° C. to allow formation of the Enzyme-Inhibitor complex. The reaction is initiated by addition of buffer and substrate, and then activity is measured over 15 minutes for the determination of initial velocities.\nThe enzyme and the inhibitor (or DMSO as control) are incubated for 30 minutes at 37° C. The complex thus formed is diluted to 100th in the buffer/substrate mixture and then the activity measurement is started over 20 minutes. The initial rate obtained for the DMSO represents the 100% activity and will serve as a reference for the quantification of the residual activity of the enzyme in the presence of the inhibitor.\nThe reaction is started over 20 minutes upon addition of the buffer-substrate mixture.\nInitial velocity values in RFU·min^−1 are reduced to Specific Activity (SA)values (pmol/min/μg enzyme) from an AMC standard range (1 RFU→0.02 pmol). […]", "data": [{"smiles": "CC(=O)N[C@@H](CC(=O)O)C(=O)N[C@@H](CCC(=O)O)C(=O)N[C@H](C(=O)N[C@H](C=O)CC(=O)O)C(C)C", "note": "[Ac-DEVD-CHO]", "values": [{"measurement": "IC50", "value": "0.7 ± 0.03", "unit": "nM"}, {"measurement": "Ki", "value": 0.159, "unit": "nM"}]}]}
